Measurements published in patent US20240261333A1, “NOVEL TARGETS FOR ENHANCING ANTI-TUMOR IMMUNITY” (THE BROAD INSTITUTE, INC., priority 2021, published 2024).

Tests used:
Experiment in all cases: co-IP, IgG control, lysate of C-FLAG B3GNT2 cells, mass spectrometry
CALM2 = CALM2 (UniProt P0DP24)
HSPH1 = HSPH1 (UniProt Q92598)
RNASE1 = RNASE1 (UniProt P07998)
SLC25A1 = SLC25A1 (UniProt P53007)
SRSF7 = SRSF7 (UniProt Q16629)
TNC = TNC (UniProt P24821)

Measured: co-IP/MS count

IgG control (Millipore Sigma 12-371) (antibody)
0: all assays above
